Drawing on patent US4450115A, “Amino-alcohol derivatives” (Kyowa Hakko Kogyo Co., Ltd., priority 1979, dated 1984), this text covers LD50 for one compound.

Structures can show the parent of a compound that is named as a salt.

The nature of the series: in vivo. Conditions: mouse, Table 6, oral, male dd-strain mice. An excerpt:
The test compounds were orally administered to male dd-strain mice weighing 20-25 g.

`CC(CCc1ccccc1)NCC(O)c1ccc(O)c(C(N)=O)c1` (stereo not shown) [Reference compound, 5-[1-hydroxy-2-(1-methyl-3-phenylpropyl)aminoethyl] salicylamide hydrochloride, reference compound] came in with an LD50 of 760 to 1000 mg/kg.
